# Test results: article PMC5209244 (Bioorganic & medicinal chemistry, 2016)
# Protein sequences, listed by entry. Tags and fused reporters are not part of them.
# UniProt P28223, whole entry: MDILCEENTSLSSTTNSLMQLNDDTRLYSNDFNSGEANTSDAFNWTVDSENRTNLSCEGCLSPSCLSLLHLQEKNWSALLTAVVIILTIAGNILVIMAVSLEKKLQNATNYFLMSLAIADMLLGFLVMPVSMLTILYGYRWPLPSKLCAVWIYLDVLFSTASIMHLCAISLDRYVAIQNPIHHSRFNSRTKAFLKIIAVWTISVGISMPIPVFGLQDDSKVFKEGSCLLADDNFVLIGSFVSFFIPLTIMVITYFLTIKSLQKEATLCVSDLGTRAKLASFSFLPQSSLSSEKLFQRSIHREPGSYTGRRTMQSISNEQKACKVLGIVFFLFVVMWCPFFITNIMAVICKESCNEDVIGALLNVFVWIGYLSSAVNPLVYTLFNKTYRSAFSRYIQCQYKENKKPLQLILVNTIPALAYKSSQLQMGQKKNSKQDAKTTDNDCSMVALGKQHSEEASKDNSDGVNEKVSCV
# Biological target: 5-HT2AR (Homo sapiens, UniProt P28223)
# Experiment: NIMH-PDSP radioligand binding, 5-HT2A receptor
smiles,measurement,value
"O=C1NCN(c2ccccc2)C12CCN(CCCCc1nc3cc(Cl)ccc3s1)CC2 [Compound 8, 8-(4-(5-chlorobenzo[d]thiazol-2-yl)butyl)-1-phenyl-1,3,8-triazaspiro[4.5]decan-4-one]",pKi ± SE 5-HT2A,5.8±0.1
